Here are results for one compound from US20070004803A1, “Compounds and methods for use in treating neoplasia and cancer based upon inhibitors of isoprenylcysteine methyltransferase” (Purdue Research Foundation, priority 2003, published 2007).

Structures are written as SMILES.

This assay concerns the target T1, Saccharomyces cerevisiae Icmt (Saccharomyces cerevisiae, UniProt P32584).
T1 construct: A 734 bp EagI-SacII fragment, which contained the gene STE14, was amplified from pSM187; made in house; host or cells: Saccharomyces cerevisiae strain CH2704 (plasmid pCHH10m3N-STE14 in the Ste14p-lacking strain SM1188); membrane fraction
T1 sequence (P32584 1-239): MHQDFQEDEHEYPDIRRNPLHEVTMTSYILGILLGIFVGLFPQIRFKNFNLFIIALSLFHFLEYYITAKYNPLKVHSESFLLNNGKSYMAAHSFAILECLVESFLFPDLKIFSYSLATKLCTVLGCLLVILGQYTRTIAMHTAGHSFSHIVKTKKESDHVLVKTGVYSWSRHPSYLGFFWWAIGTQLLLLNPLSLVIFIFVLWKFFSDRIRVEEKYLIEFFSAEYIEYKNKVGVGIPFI
As to the kind of experiment: In vitro vapor diffusion methyltransferase assay, AFC analogues as substrates. The assay is classed as biochemical. To be noted: Relative velocity (compared to AFC) at 125 μM; substrate ability. The method, then:
Previous studies in this laboratory have focused on the isoprenoid substrate specificity of FTase. We have discovered analogues that are effective alternative substrates, and compounds that are potent inhibitors. […] In the initial study, six isoprenoid-modified analogues (2-7, Chart 1, below) of the minimal Icmt substrate AFC 1 were prepared and evaluated as substrates and as inhibitors of the enzyme. These isoprenoid moieties were chosen in part because the corresponding FPP analogues are alternative substrates for FTase, and can thus be readily incorporated into peptides and proteins. The assays were performed using overexpressed, reconstituted recombinant Saccharomyces cerevisiae Icmt.
Isolation of Membrane Fraction from Yeast Cells—Mid-log phase yeast cells (2.0-3.0 OD600/mL), grown in SC-URA, media, were harvested by centrifugation at 3500×g for 10 minutes at 4° C., washed with 10 mM NaN3, and resuspended in lysis buffer (0.3 M sorbitol, 10 mM Tris-HCl pH 7.5, 0.1 M NaCl, 5 mM MgCl2, 1% aprotinin, 10 μg/mL leupeptin, 10 μg/in L pepstatin A, 10 μg/mL chymostatin, 10 μg/mL bestatin, 1 mM dithiothreitol, and 2 mM AEBSF) to a final concentration of 800 OD600/mL. After a 15 min incubation on ice, the cells were frozen and thawed twice in liquid N2. […] Protein samples were analyzed by immunoblot analysis and in vitro vapor diffusion methyltransferase assay as described elsewhere. […]

In turn, `CC(=O)N[C@@H](CSC/C=C(\C)CCc1ccc(-c2ccccc2)cc1)C(=O)O` [Compound 7, N-Acetyl-S-(3-methyl-5-(4-phenyl)phenylpent-2E-en-1-yl)-L-cysteine] came in with an Icmt krel of 10.7.
